# Data reported in PubChem BioAssay AID743397 (Broad Institute, 2014).
# The entries are a selection whose mix differs from that of the whole data set. Activity calls are given as the source filed them.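 How the source made its calls: active means mean replicate inhibition of at least 30% and at least 1% of replicates passing that level; inconclusive means only one of the two criteria is met; inactive means neither criterion is met.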
# Test system: Voltage-dependent L-type calcium channel subunit alpha-1D (CaV1.3) ICDI/IQ interaction
# Test: Primary screen for inhibitors of IQ motif and Ca2+-dependent inactivation inhibitor domain binding in CACNA1D, Förster resonance energy transfer in living cells, single-concentration test (AID 743397);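 further: 0% = median of the neutral control wells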
# Details: HEK cells, CFP/YFP FRET ICDI-IQ, plate reader, 10 min; at 12.3 µM; stronger effect = higher value; percent FRET-ratio fall versus neutral wells
row,SMILES,inhibition
1,Cc1ccccc1CN(C)C(=O)COC(=O)C(O)(c1ccccc1)c1ccccc1,inactive: -15.6%
2,C[C@@H]1C=CCP(=O)(Oc2ccccc2)O1 (some centres not stated),inactive: -5.66%
3,C[C@H]1OP(=O)(Oc2ccccc2)C[C@@H]2O[C@@H]21 (some centres not stated),inactive: -10.3%
4,N#C/C(=C\c1ccc(N(CCBr)CCBr)cc1)C(N)=O,inactive: -7.2%
5,CC(=O)c1ccc(N2CC2c2ccncc2)cc1 (configuration not stated),inactive: -6.1%
6,COC(=O)C1(C)COP(=O)(NCc2ccccc2)OC1 (configuration not stated),inactive: -6.67%
7,CC(=O)Nc1ccc([As](=O)(O)O)c(O)c1,inactive: 3.26%
8,CC(=O)Nc1ccc(Oc2c([N+](=O)[O-])cc([N+](=O)[O-])cc2[N+](=O)[O-])cc1,inactive: -19.5%
9,O=P1(Nc2nc3ccc(Cl)cc3s2)COc2ccccc2O1 (configuration not stated),inactive: -8.76%
10,CCOc1ccc(C2=NCC(CBr)S2)cc1 (configuration not stated),inactive: -3.96%
11,CC(C)(C)C(=O)NC(Sc1ccccc1)C(Cl)(Cl)Cl (configuration not stated),inactive: -6.6%
12,CCc1cc(O)c([N+](=O)[O-])c(C)c1[N+](=O)[O-],inactive: -6.13%
13,O=C(OC1CN2CCC1CC2)c1ccccc1 (configuration not stated),inactive: -4.56%
14,CC(=O)NC(SC(=S)N(CC(C)C)CC(C)C)C(Cl)(Cl)Cl (configuration not stated),inactive: -6.03%
15,Cc1ccc(OP(=O)(Nc2ccccn2)Oc2ccc(C)cc2)cc1,inactive: -3.97%
16,Cc1ccccc1OP(=O)(Nc1ccccn1)Oc1ccccc1C,inactive: -4.55%
17,CC(NC(=O)COC(=O)C(O)(c1ccccc1)c1ccccc1)c1ccccc1 (configuration not stated),inactive: -4.74%
18,CN(C)C(=O)Oc1noc2ccccc12,inactive: -2.07%
19,O=c1c2cc([N+](=O)[O-])ccc2[nH]c2c([N+](=O)[O-])cc([N+](=O)[O-])cc12,inactive: -1.52%
20,c1ccc(-c2nn[nH]n2)c(-c2nn[nH]n2)c1,inactive: -12.7%
21,Cc1ccc(NP(=O)(Oc2cccc(C)c2)Oc2cccc(C)c2)nc1,inactive: -3.7%
22,O=C(NC1CCS(=O)(=O)C1)NP(=S)(Oc1ccccc1)Oc1ccccc1 (configuration not stated),inactive: -4.35%
23,CCNC(=S)/N=C(\N)N[N+](=O)[O-],inactive: -5.04%
24,O=P1(N(CCCl)CCCl)OCCC2CCCCN21 (configuration not stated),inactive: -13.8%
25,O=[As](O)(c1ccccc1)c1ccc(O)cc1,inactive: -15.3%
26,CC(=O)NC(SC(=S)N(C)C)C(Cl)(Cl)Cl (configuration not stated),inactive: -2.35%

row,SMILES,inhibition
1,O=[N+]([O-])c1ncn(CCn2cnc([N+](=O)[O-])n2)n1,inactive: -1.85%
2,O=C(OC1CN2CCC1CC2)c1cccc(Cl)c1 (configuration not stated),inactive: -5.72%
3,C/C(N)=N\P(=O)(OCc1ccccc1)OCc1ccccc1,inactive: -4.93%
4,Nc1ccc([As](=O)(O)c2ccc([N+](=O)[O-])cc2)cc1,inactive: -4.66%
5,C(Cc1nn[nH]n1)Cc1nn[nH]n1,inactive: -2.74%
6,CN(C)C1(CNC(=O)c2ccc(Cl)c(S(N)(=O)=O)c2)CCCCC1,inactive: -4.5%
7,O=P(Nc1ccccn1)(c1ccc(Br)cc1)c1ccc(Br)cc1,inactive: -4.48%
8,Nc1ccc(CCCCOc2ccccc2)cc1,inactive: -4.74%
9,COc1ccc(N)c([N+](=O)[O-])c1[N+](=O)[O-],inactive: -5.73%
10,O=P(Nc1nc2ccccc2s1)(c1ccccc1)c1ccccc1,inactive: -1.92%
11,O=P(Nc1nccs1)(c1ccccc1)c1ccccc1,inactive: -3.03%
12,CC(C)C(=O)NC(Sc1ccccc1)C(Cl)(Cl)Cl (configuration not stated),inactive: -4.54%
13,c1nnnn1CCn1cnnn1,inactive: -3.72%
14,CCN(/C(=N/P(=O)(N1CCOCC1)N1CCOCC1)N1CCOCC1)c1ccc(OC)cc1,inactive: 0.073%
15,Nc1ccc([As](=O)(O)c2ccc(N)cc2)cc1,inactive: 3.16%
16,C[N+]1=C2C=CC=CC=C2SC12C([N+](=O)[O-])=CC([N+](=O)[O-])=C[C-]2[N+](=O)[O-] (configuration not stated),inactive: -20.6%
17,c1cc(-c2nn[nH]n2)ccc1-c1nn[nH]n1,inactive: -4.58%
18,CC1CCN(C(=O)Oc2c(Cl)cc(Cl)c3cccnc23)CC1,inactive: -5.3%
19,CC(C)=N/N=C(\N)N[N+](=O)[O-],inactive: -4.22%
20,CC(C)c1nc(Nc2ccccc2)n(P(=O)(N(C)C)N(C)C)n1,inactive: -10.7%
21,CN(C)C(=O)OCCc1n(C)cc[n+]1C,inactive: -6.8%
22,COc1ccc(C2=NCC(CBr)S2)cc1 (configuration not stated),inactive: 2.24%
23,Cc1ccc(NP(=O)(Oc2ccccc2)Oc2ccccc2)nc1,inactive: 2.57%
24,O=[N+]([O-])c1cc([N+](=O)[O-])c(CCNc2ccccc2)c([N+](=O)[O-])c1,inactive: -2.06%
25,CCc1nc2c(n1)c1c(non1O)c1c2no[n+]1[O-],inactive: -7.54%
26,O=[N+]([O-])c1cccc2n[nH]nc12,inactive: -4.99%

row,SMILES,inhibition
1,O=[N+]([O-])c1ncn(CCn2ncnc2[N+](=O)[O-])n1,inactive: -4.95%
2,CC(C)(C)C(=O)NC(Sc1ccncn1)C(Cl)(Cl)Cl (configuration not stated),inactive: 1.28%
3,O=C(O)CNc1ccc([As](=O)(O)O)cc1,inactive: -19.5%
4,O=[N+]([O-])c1cccc(NC2=NCC(CBr)S2)c1 (configuration not stated),inactive: -14.7%
5,COC(=O)C1(C)COP(=O)(Nc2ccccc2)OC1 (configuration not stated),inactive: -6.75%
6,O=P1(N(CCCl)CCCl)OCCCS1 (configuration not stated),inactive: -10.4%
7,O=C(Nc1cc([As](=O)(O)O)ccc1O)c1ccccc1,inactive: -12.3%
8,Nc1cccc2ccc([As](=O)(O)O)cc12,inactive: -3.96%
9,CCN(N=Nc1nonc1N)c1nonc1N,inactive: -1.85%
10,CN(C)P(=O)(N(C)C)n1c(Nc2ccccc2)nnc1-c1ccccc1,inactive: -6.02%
11,O=P(Nc1nc2ccc(Cl)cc2s1)(c1ccccc1)c1ccccc1,inactive: 4.88%
12,O=C(O)c1ccccc1[As](=O)(O)O,inactive: -17.6%
13,CC(=O)Nc1ccc([As](=O)(O)O)cc1,inactive: -10.8%
14,CCCC1OP(N)(=O)OCC1CC (configuration not stated),inactive: -4.97%
15,Cc1cc(SC(NC(=O)c2ccc(F)cc2)C(Cl)(Cl)Cl)ncn1 (configuration not stated),inactive: -6.24%
16,CN(C(=O)Cc1ccc(Cl)c(Cl)c1)[C@H]1CCCC[C@@H]1N1CCCC1,inactive: -4.79%
17,Cc1ccc(NP(=O)(Oc2ccccc2F)Oc2ccccc2F)nc1,inactive: -7.41%
18,Oc1ccccc1CNc1ccccn1,inactive: -8.17%
19,O=C(NC(Sc1ccncn1)C(Cl)(Cl)Cl)c1ccccc1 (configuration not stated),inactive: -3.46%
20,CC(C)CC(=O)NC(Sc1ccc(Cl)cc1)C(Cl)(Cl)Cl (configuration not stated),inactive: -3.2%
21,Nc1cc(N)c2nonc2c1[N+](=O)[O-],inactive: -4.34%
22,CN(C(=O)Cc1ccc(Cl)c(Cl)c1)[C@H]1CCCC[C@H]1N1CCCC1,inactive: -5.05%
23,Cc1ccc(N/C(=N/P(=O)(N2CCOCC2)N2CCOCC2)N2CCOCC2)cc1,inactive: 1.3%
24,NC(=O)c1cc([N+](=O)[O-])cc([N+](=O)[O-])c1N,inactive: -2.4%
25,Clc1ccc(Cl)c(NC2=NCC(CBr)S2)c1 (configuration not stated),inactive: -2.87%
26,COc1ccccc1OP(=O)(Nc1ccc(C)cn1)Oc1ccccc1OC,inactive: -6.6%

row,SMILES,inhibition
1,Cc1ccc(OP(=O)(Nc2nccs2)Oc2ccc(C)cc2)cc1,inactive: -3.71%
2,O=[N+]([O-])c1cc(Oc2ccc([N+](=O)[O-])cc2C(F)(F)F)cc([N+](=O)[O-])c1,inactive: -2.36%
3,COc1ccc(N/C(=N/P(=O)(N2CCOCC2)N2CCOCC2)N2CCOCC2)cc1,inactive: 3.56%
4,Cc1c2c(nc3ccccc13)SC(C(Cl)Cl)C2 (configuration not stated),inactive: -13.4%
5,Cc1cc(=O)[nH]c(N[N+](=O)[O-])n1,inactive: -1.99%
6,O=P1(N(CCCl)CCCl)OCCCN1CCCl (configuration not stated),inactive: -6.59%
7,O=P1(N(CCCl)CCCl)Nc2ccccc2N1,inactive: -7.1%
8,COc1ccc2nc(NP(=O)(c3ccccc3)c3ccccc3)sc2c1,inactive: -4.08%
9,COc1cc(I)ccc1[As](=O)(O)O,inactive: -6.73%
10,ClCCSc1nnc(-c2cccnc2)o1,inactive: -4.09%
11,CC(C)c1ccc(OP(=O)(Nc2ccccn2)Oc2ccccc2F)cc1 (configuration not stated),inactive: -13.1%
12,COC(=O)C1(C)COP(=O)(N2CCCCCC2)OC1 (configuration not stated),inactive: -6.62%
13,O=C(OC1CN2CCC1CC2)c1cccc2[nH]cnc12 (configuration not stated),inactive: -9%
14,CC(C)NC(=O)NP(=O)(Oc1ccccc1)Oc1ccccc1,inactive: -4.81%
15,O=[As](O)(c1ccc(O)cc1)c1ccccc1O,inactive: -5.1%
16,C[As](=O)(O)c1cccc(C(=O)O)c1,inactive: -18.4%
17,COc1cc(C(=O)NCC2(N3CCOCC3)CCCCC2)ccc1OCC(C)C,inactive: 2.47%
18,O=[N+]([O-])c1ccc(-c2cc([N+](=O)[O-])c(O)c([N+](=O)[O-])c2)cc1,inactive: -17.2%
19,Cc1ccc(OP(=O)(Nc2ccc([N+](=O)[O-])cn2)Oc2ccc(C)cc2)cc1,inactive: -4.5%
20,[N-]=[N+]=NC1CCCCC1NC(=O)c1cc([N+](=O)[O-])cc([N+](=O)[O-])c1 (configuration not stated),inactive: -5.73%
21,Cc1ccc2nc3c(c(C)c2c1)CC(C(Cl)Cl)S3 (configuration not stated),inactive: -7.48%
22,CCOC(=O)Nc1cccc([As](=O)(O)O)c1,inactive: -20.4%
23,Cc1cc(SC(NC=O)C(Cl)(Cl)Cl)ncn1 (configuration not stated),inactive: -16.5%
24,O=P(Nc1ccccn1)(c1cccc2ccccc12)c1cccc2ccccc12,inactive: -4.4%
